Results as given in patent US6656930B2, “Aralkyl diazabicycloalkane derivatives for CNS disorders” (The United States of America as represented by the …, priority 1992, dated 2003).

Protein sequences, listed by entry. Tags and fused reporters are not part of them.
UniProt Q60492, whole entry: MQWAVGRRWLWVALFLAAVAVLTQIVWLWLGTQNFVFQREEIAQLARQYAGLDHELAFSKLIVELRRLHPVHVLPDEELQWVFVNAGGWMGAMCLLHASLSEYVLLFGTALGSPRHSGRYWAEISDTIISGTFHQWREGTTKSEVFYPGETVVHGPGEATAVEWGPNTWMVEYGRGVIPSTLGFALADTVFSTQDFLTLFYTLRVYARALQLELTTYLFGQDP

target: T1, sigma receptor (Cavia porcellus, UniProt Q60492); experiment: Radioreceptor assay: displacement of [3H](+)-pentazocine from guinea pig brain membranes; assay type: binding; details: apparent Ki from IC50 by Cheng-Prusoff; 3 nM [3H](+)-pentazocine; crude P2 membrane fraction of guinea pig brain; 120 min at 25° C., pH 8.0; read-out: Ki ([3H] (+)-Pent)
T1 construct: Crude P2 membrane fractions were prepared from frozen (−80° C.) guinea pig brains (Pel-Freeze, Rogers, AK), minus cerebella; tissue Pel-Freeze, Rogers, AK; host or cells: guinea pig brain minus cerebella, crude synaptosomal (P2) membrane fraction

Row | Substance | pKi
1 | 2-[2-(3,4-Dichlorophenyl) ethyl]-2,5-diazabicyclo[4.0.4]decane [Compound of Ex. 17] | 9.11
2 | (R)-2-[2-(3,4-Dichlorophenyl)ethyl]-2,5-diazabicyclo[3.0.4]nonane [Compound of Ex. 12] | 8.44
3 | (S)-2-[2-(3,4-Dichlorophenyl)ethyl]-2,5-diazabicyclo[3.0.4]nonane [Compound of Ex. 6] | 6.01

pKi: −log10 of the molar value.
